We go through 1 substance from patent publication US9006170B2, “Compositions for elastogenesis and connective tissue treatment” (Human Matrix Sciences, LLC, priority 2004, dated 2015).

The subject of this series is normal human skin fibroblasts. The following applies: higher concentrations of iron (100 and 200 μM). On the procedure: Assessment of Cell Proliferation. Normal human skin fibroblasts were suspended in DMEM containing 10% FBS and plated in 35 mm culture dishes (100,000 cells/dish) in quadruplicates. […] These cultures were then washed in PBS and treated with cold 5% trichloroacetic acid twice for 10 minutes at 4° C. For 30 minutes, 0.5 ml of 0.3 N NaOH was added to all dishes, and 200 μl aliquots of each culture were mixed with scintillation fluid and counted.

As for ferric ammonium citrate [FAC], the cellular cytotoxicity entry is on record as “not due to cellular cytotoxicity”.
